The values below come from paper doi:10.1101/2025.08.29.673196v2.

Amino acid sequences for entries named in this document (tags omitted). Residues count along the entry.
UniProt P18627, 23-450 limits assumed: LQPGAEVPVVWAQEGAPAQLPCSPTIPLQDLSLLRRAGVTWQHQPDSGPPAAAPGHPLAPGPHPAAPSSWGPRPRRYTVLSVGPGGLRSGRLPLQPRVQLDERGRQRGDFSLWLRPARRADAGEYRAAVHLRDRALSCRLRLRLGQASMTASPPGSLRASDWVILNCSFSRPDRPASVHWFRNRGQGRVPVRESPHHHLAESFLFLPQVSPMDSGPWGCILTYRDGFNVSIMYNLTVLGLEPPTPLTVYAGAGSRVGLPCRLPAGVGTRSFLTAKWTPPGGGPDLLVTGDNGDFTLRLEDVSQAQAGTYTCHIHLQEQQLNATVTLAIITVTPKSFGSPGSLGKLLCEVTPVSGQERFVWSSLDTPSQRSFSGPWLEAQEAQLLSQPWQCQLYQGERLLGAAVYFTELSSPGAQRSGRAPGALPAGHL

This assay deals with LAG-3 (biotinylated LAG-3 of HTRF LAG-3/MHCII binding assay) (Homo sapiens, UniProt P18627). As to the kind of experiment: HTRF LAG-3/MHCII binding inhibition. As to conditions: displacement of MHCII; room temperature, 3 h. Background: In TR-FRET formats the signal depends on donor and acceptor labels being close together.
One may read the IC50 as the concentration at which inhibition is half-maximal. In turn, `Cc1cc(=O)oc2cc(NC(=O)c3cc(NC(=O)C(=O)Nc4cc(Cl)c(C#N)cc4S(C)(=O)=O)ccc3Oc3ccc(C(=O)O)cc3)ccc12` came in with an IC50 of 62 nM.

On to `Cc1cc(=O)oc2cc(NC(=O)c3cc(NC(=O)C(=O)Nc4ccc(C#N)c(Cl)c4)ccc3Oc3ccc(C(=O)O)cc3)ccc12`, for which the half-inhibitory concentration (IC50) worked out at 139 nM.

`COc1cc(C#N)c(Cl)cc1NC(=O)C(=O)Nc1ccc(Oc2ccc(C(=O)O)cc2)c(C(=O)Nc2ccc3c(C)cc(=O)oc3c2)c1`: the 50% inhibitory concentration (IC50) worked out at 24 nM.

Turning to `CCOC(=O)c1c(NC(=O)C(=O)Nc2ccc(Oc3ccc(C(=O)O)cc3)c(C(=O)Nc3ccc4c(C)cc(=O)oc4c3)c2)sc2c1CCCC2`, the half-maximal inhibitory concentration (IC50) came out at 313 nM.
